# Molecular target: T1, KOR, Gαi/o-class TRUPATH sensors (Homo sapiens, UniProt P41145)
# Protein sequences, listed by entry. Tags and fused reporters are not part of them. Lines headed by an entry give the natural chain unless they say otherwise; changes in a name come on top.
# UniProt P41145: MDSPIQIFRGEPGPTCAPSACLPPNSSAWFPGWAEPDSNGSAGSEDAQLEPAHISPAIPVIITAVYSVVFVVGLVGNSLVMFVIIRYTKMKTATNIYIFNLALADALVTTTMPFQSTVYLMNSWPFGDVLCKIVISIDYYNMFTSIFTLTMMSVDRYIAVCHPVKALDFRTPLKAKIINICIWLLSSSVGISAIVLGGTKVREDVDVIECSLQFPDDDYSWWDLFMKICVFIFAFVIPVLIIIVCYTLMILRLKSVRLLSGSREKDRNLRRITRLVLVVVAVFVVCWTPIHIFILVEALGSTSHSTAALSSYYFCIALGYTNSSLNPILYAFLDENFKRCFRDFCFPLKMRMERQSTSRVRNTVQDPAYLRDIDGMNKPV
# T1 construct: expressed in transfected cells
# Type: cell-based
smiles,measurement,value
COC(=O)[C@@H]1C[C@H](OC(C)=O)C(=O)[C@H]2[C@@]1(C)CC[C@H]1C(=O)O[C@H](c3ccoc3)C[C@]21C [Salvinorin A],efficacy across transducers (in words),activated all transducers with equal efficacy
